For this assay, the target named is GPER (Homo sapiens, UniProt Q99527). The assay is described as follows: Competitive binding assay in intact SKBR3 cells with E2-FITC as fluoro-tracer (flow cytometry). Also noted: endogenous in cells; host or cells: SKBR3 human breast carcinoma cells (ATCC).

By UniProt entry, the sequences of proteins in these tests, tags left out.
UniProt Q99527, whole entry: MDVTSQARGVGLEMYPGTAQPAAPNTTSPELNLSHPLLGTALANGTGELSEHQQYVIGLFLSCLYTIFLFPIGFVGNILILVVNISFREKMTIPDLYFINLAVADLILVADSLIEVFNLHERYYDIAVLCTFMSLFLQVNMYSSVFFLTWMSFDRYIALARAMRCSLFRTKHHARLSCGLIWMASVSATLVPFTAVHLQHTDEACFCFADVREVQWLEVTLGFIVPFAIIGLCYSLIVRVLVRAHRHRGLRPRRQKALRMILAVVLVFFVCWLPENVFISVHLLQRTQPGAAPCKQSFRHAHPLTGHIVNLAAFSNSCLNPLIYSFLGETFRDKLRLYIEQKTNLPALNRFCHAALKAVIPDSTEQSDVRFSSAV

In the case of `Cc1ncsc1-c1ccc(CNC(=O)C2CC(O)CN2C(=O)C(NC(=O)COCCOCCOCCOCC(=O)OC2CCC3C4CCc5cc(O)ccc5C4CCC23C)C(C)(C)C)cc1` (stereo not drawn) [UI-EP001], the “RBA%, GPER” value (IC50 of 17β-E2 divided by IC50 of test compound) was found to be 331.1%. The same compound yielded an IC50 (intact SKBR3 cells, 100 nM E2-FITC, mean ± SD of triplicates) of 30.2 ± 0.9 nM. Under “intact SKBR3 cells, E2-FITC, read-out: binding dissociation constant (Kd), GPER”, the Kd is 30.2 nM.

For the origin of these results see patent US20230312639A1, “GPER PROTEOLYTIC TARGETING CHIMERAS” (University of Iowa Research Foundation, priority 2020, published 2023).
